Earlier results on one compound are cited in article PMC3668559 (Journal of medicinal chemistry, 2011).

This data set deals with AR AF2. The conditions noted are these: cited from earlier work.

Consider `O=C(O)Cc1cc(I)c(Oc2ccc(O)c(I)c2)c(I)c1` [Compound 5, 3,3′,5 –triiodo thyroacetic acid], for which the “effect on AF2 peptide binding / co-activator interaction” value is reported as “inhibit AF2 peptide binding”.
